Experimental data from PubChem BioAssay AID2754 (The Scripps Research Institute Molecular Screening Center, 2010).
Calls of active or inactive are those of the source. The rule behind the calls is not given here.

Molecular target: VIM-2 metallo-beta-lactamase (Pseudomonas aeruginosa) (UniProt Q932Y6)
Test: VIM-2 metallo-beta-lactamase inhibitor potency, dose response, biochemical, epi-absorbance, common IMP-1/VIM-2 hits (AID 2754)
Details: purified VIM-2 enzyme, absorbance substrate hydrolysis

| Structure (SMILES) | IC50 |
| --- | --- |
| CCN1C(=O)c2cccc3c(N)ccc(c23)C1=O | 8.24 µM |
| CCCCNc1ccc2c3c(cccc13)C(=O)N(CCCC)C2=O | inactive |
